Laboratory results from article PMC2788660 (Journal of medicinal chemistry, 2009).
Square brackets hold non-standard residues; d marks the D form. Peptide text beside a SMILES is read from it. 1Nal = N[C@@H](Cc1cccc2ccccc12)C(=O)O; Asu = N[C@@H](CCCCCC(=O)O)C(=O)O; β3hL = CC(C)C[C@H](N)CC(=O)O

The chains behind the UniProt entries cited, without tags or fusion partners. Where a name states a change or a piece, a line headed by the entry shows the natural chain unless it says otherwise.
UniProt O15379: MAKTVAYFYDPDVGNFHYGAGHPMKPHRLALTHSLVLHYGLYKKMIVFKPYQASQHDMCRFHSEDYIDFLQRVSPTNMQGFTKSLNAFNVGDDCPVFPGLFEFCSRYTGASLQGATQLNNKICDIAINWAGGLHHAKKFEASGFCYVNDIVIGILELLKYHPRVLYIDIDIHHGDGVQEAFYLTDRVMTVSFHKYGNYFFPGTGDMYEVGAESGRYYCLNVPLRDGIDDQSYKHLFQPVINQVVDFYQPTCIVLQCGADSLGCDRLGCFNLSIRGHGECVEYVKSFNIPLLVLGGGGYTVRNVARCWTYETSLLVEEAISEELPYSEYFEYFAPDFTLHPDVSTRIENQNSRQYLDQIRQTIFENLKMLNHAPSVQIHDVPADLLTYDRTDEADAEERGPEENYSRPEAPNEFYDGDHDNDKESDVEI

Biological target: HDAC3–NCoR2 (Homo sapiens, UniProt O15379)

CC(C)C[C@H]1CC(=O)N[C@@H](CCCNC(=N)N)C(=O)N[C@@H](CCCCCC(=O)O)C(=O)N[C@@H](Cc2cccc3ccccc23)C(=O)N1 [compound 17, c[Asu-Nal-β^3Leu-Arg]] (cyclo([Asu][1Nal][β3hL]R); ring closure inferred)
fold more potent against HDAC3 compared to Ala–aa4 analog (8b): 4–5 fold
